By UniProt entry, the sequences of proteins in these tests, tags left out.
UniProt P97612, whole entry: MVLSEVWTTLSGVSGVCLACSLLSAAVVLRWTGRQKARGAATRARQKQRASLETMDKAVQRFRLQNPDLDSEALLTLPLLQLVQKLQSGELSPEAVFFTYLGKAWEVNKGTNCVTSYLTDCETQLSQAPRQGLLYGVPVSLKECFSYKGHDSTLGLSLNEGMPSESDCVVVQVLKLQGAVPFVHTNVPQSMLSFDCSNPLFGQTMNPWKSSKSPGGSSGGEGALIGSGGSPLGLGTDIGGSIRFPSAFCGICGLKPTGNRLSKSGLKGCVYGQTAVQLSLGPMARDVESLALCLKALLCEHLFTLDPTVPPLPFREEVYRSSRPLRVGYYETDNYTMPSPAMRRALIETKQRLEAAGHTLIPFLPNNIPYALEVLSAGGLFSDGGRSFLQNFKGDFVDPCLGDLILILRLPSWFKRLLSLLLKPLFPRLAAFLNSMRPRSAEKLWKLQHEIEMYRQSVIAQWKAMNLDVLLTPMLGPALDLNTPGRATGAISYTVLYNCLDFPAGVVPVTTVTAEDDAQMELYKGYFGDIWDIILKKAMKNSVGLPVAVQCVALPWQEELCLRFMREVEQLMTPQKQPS

In ChEMBL document CHEMBL3774360, “Potent multitarget FAAH-COX inhibitors: Design and structure-activity relationship studies” (Eur J Med Chem, 2016):

Biological target: Fatty-acid amide hydrolase 1 (Rattus norvegicus, UniProt P97612)
Assay: Inhibition of FAAH in Sprague-Dawley rat brain homogenates preincubated for 10 mins followed by addition of substrate measured after 30 mins by liquid scintillation counting
Format: tissue-based

SMILES	IC50 [nM]
CCCCCCNC(=O)Oc1cccc(-c2ccc([C@@H](C)C(=O)O)cc2F)c1	9.9
CCCCCCNC(=O)Oc1cccc(-c2ccc([C@H](C)C(=O)O)cc2F)c1	9.4
